In data set [1] the test system is patients with Type 1 diabetes. The data set can be described thus: Continuous subcutaneous very low dose glucagon infusion in insulin-treated patients: glucagon and glucose blood levels (Example 7).
Assay in data set [2]: as above
The following applies: human, in vivo, sc.

For data set [3] the following is noted: subcutaneous glucagon; cited from earlier work.

Molecules are shown by their SMILES. Where only a bound is given, the exact number is not on record here.

Consider `CSCC[C@H](NC(=O)[C@H](CC(C)C)NC(=O)[C@H](Cc1c[nH]c2ccccc12)NC(=O)[C@H](CCC(N)=O)NC(=O)[C@@H](NC(=O)[C@H](Cc1ccccc1)NC(=O)[C@H](CC(=O)O)NC(=O)[C@H](CCC(N)=O)NC(=O)[C@H](C)NC(=O)[C@H](CCCN=C(N)N)NC(=O)[C@H](CCCN=C(N)N)NC(=O)[C@H](CO)NC(=O)[C@H](CC(=O)O)NC(=O)[C@H](CC(C)C)NC(=O)[C@H](Cc1ccc(O)cc1)NC(=O)[C@H](CCCCN)NC(=O)[C@H](CO)NC(=O)[C@H](Cc1ccc(O)cc1)NC(=O)[C@H](CC(=O)O)NC(=O)[C@H](CO)NC(=O)[C@@H](NC(=O)[C@H](Cc1ccccc1)NC(=O)[C@@H](NC(=O)CNC(=O)[C@H](CCC(N)=O)NC(=O)[C@H](CO)NC(=O)[C@@H](N)Cc1c[nH]cn1)[C@@H](C)O)[C@@H](C)O)C(C)C)C(=O)N[C@@H](CC(N)=O)C(=O)N[C@H](C(=O)O)[C@@H](C)O` [glucagon], for which the “change of blood glucagon levels” value in data set [1] (8 ng/kg/min. s.c. continuous infusion) is given as “approximately doubling”. The “peak mean plasma glucagon level” value in data set [1] (16 ng/kg/min. s.c. for 9 hours, two patients) is “about 254 pg/mL”. The “peak plasma glucagon levels compared with the 12 ng/kg/min. dose” value in data set [1] (16 ng/kg/min. s.c., both subjects) is reported as “higher”. The compound also came in with a Cmax in data set [2] (12 ng/kg/min) of 0.185 ng/mL. In data set [2] (16 ng/kg/min), the Tmax was at most 3 h. The “time to peak levels” value in data set [3] was 15 to 30 min.
